Measurements reported in the NIST ThermoML archive (doi:10.1016/j.jct.2005.01.002).

Assay: xn = mol fraction of the nth substance listed
Conditions: 101 kPa, Liquid

CCCCOCCCC [dibutyl ether] + CN(C)C=O
mass density [kg/m3]
Conditions	298.15 K	313.15 K	328.15 K	343.15 K	358.15 K
x2 = 0.0483	768.21	755.06	741.79	728.37	714.7
x2 = 0.0806	771.19	758.08	744.82	731.39	717.74
x2 = 0.1337	776.54	763.46	750.07	736.74	723.01
x2 = 0.1611	779.45	766.34	752.91	739.58	725.78
x2 = 0.216	785.37	772.37	759.03	745.62	731.77
x2 = 0.2552	789.82	776.88	763.5	750.06	736.2
x2 = 0.3265	798.49	785.61	772.16	758.64	744.72
x2 = 0.3518	801.74	788.88	775.39	761.84	747.98
x2 = 0.4154	810.36	797.56	783.96	770.41	756.42
x2 = 0.4691	818.19	805.41	791.73	778.14	764.11
x2 = 0.4967	822.42	809.67	795.93	782.32	768.26
x2 = 0.5034	823.48	810.72	796.98	783.36	769.29
x2 = 0.5397	829.38	816.63	802.8	789.15	775.04
x2 = 0.5629	833.28	820.54	806.67	793	778.87
x2 = 0.6021	840.17	827.48	813.49	799.78	785.63
x2 = 0.6412	847.47	834.8	820.71	806.96	792.77
x2 = 0.7062	860.67	847.95	833.65	819.8	805.47
x2 = 0.7531	871.09	858.35	843.87	829.89	815.71
x2 = 0.7913	880.22	867.43	852.7	838.8	824.68
x2 = 0.8441	893.79	881.03	866.01	852.04	838.01
x2 = 0.9109	913.14	900.24	884.81	870.69	856.54
x2 = 0.9585	928.55	915.55	900.12	885.8	871.37
x2 = 0.9861	938.53	925.65	909.84	895.29	880.68
